According to EP0005219A1, “Arylimidazoles, their synthesis and pharmaceutical or veterinary preparations containing them” (A/S Dumex (Dumex Ltd.), priority 1978, dated 1979):

Assay: in vivo
Details: mouse, po

COc1ccc(-c2nc(C(F)(F)F)[nH]c2-c2ccc(OC)cc2)cc1 [Compound 11, 2-Trifluormethyl-4,5-bis(p-methoxyphenyl)imidazole, reference compound]
LD50 at 168 h: > 2000 mg/kg
